Among the data in publication PMC9457746, “Synthesis of Sulfonamides Incorporating Piperidinyl-Hydrazidoureido and Piperidinyl-Hydrazidothioureido Moieties and Their Carbonic Anhydrase I, II, IX and XII Inhibitory Activity” (Molecules, 2022) are Ki values, retold here.

Chains of the proteins cited; added tags and fusions are not shown. Lines headed by an entry give the natural chain unless they say otherwise; changes in a name come on top.
UniProt P00915: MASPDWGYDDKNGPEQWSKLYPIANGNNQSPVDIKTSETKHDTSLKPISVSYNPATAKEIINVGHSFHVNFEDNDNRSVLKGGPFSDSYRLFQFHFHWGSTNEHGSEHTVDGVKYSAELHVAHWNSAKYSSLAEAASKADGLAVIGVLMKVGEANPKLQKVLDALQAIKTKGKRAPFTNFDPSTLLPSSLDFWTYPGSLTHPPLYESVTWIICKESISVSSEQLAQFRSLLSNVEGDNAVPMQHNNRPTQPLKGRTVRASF

One test addresses hCA II (Homo sapiens, UniProt P00918). Nature of the test: stopped flow CO2 hydrase assay, hCA II inhibition. As to conditions: read-out: Ki (nM) hCAII; Table 2, thioureas 6a-y; recombinant enzyme, 15 min preincubation, mean of at least three determinations.
The target in the next test is hCA I (Homo sapiens, UniProt P00915). Nature of the test: stopped flow CO2 hydrase assay, hCA I inhibition. Particulars: read-out: Ki (nM) hCAI; Table 2, thioureas 6a-y; recombinant enzyme, 15 min preincubation, mean of at least three determinations.

What is called Ki is the equilibrium dissociation constant of an inhibitor or competing ligand from its target. As for “4-(4-(4-(4-(Trifluoromethyl)phenyl)piperazine-1-carbonyl)piperidine-1-carbonyl)benzenesulfonamide [Compound 6c]”, the figures for the Ki at hCA II and at hCA I were 3.2 nM and 52 nM, respectively.
